Antibody variant affinities, Ab-14 light chain, assay B

The measurements come from Li et al. 2023 (doi:10.1038/s41467-023-39022-2) through the FLAb antibody collection.

The target is the same throughout: PDVDLGDISGINAS, from the HR2 region of SARS-CoV-2 spike.

Ab-14 is the parent antibody, in scFv form: VH, then three GGGGS repeats, then VL. The heavy chain is unchanged in all variants.
VH: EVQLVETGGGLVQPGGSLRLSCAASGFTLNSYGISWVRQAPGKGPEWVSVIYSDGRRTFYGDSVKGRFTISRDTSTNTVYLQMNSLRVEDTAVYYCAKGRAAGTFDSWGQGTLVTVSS
VL: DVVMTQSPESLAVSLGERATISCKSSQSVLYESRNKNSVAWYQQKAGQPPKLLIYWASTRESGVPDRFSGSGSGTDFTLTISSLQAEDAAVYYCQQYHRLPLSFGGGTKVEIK

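This is the validation round: designs drawn from the data on random variants, tested in the same kind of assay. Group labels follow the data file (Ctrl: baseline library sampled from a position-specific scoring matrix, with some repeated check sequences; En: ensemble of fine-tuned language models; GP: Gaussian process model; HC: hill climbing; Gen: genetic algorithm; Gibbs: Gibbs sampling; a sequence that several methods proposed may carry one label only). In AlphaSeq, yeast of one mating type display the scFv and yeast of the other type display the target. Pairs that bind mate more often; barcode pairs of the diploids are counted by sequencing. Read counts were normalised to the haploid input and turned into Kd by a linear fit to BCL2-family pairs of known affinity, for each replicate. Mating was done six times.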

Each variant is given by its three light chain CDRs, as the data file delimits them; those of the parent are KSSQSVLYESRNKNSVA, WASTRES, QQYHRLPLS. Affinities are written as log10 Kd with Kd in nM; a lower number is a better binder. Replicates are averaged; those with no signal do not enter the mean. An entry "nd" has no value in the source: the pair was not observed among the diploids in any replicate. This suggests poor binding but is not conclusive. A sequence measured in both rounds can read differently, since the two assays cover different ranges. The authors averaged sequences with at least three values out of six and counted those with two or fewer as poor binders. Empty control strains, which show no peptide, gave a signal in 4% of pairings with all light chain designs; the median was 2.64 and 95% of these signals were weaker than 1.59. No background was subtracted.

CDR-L1 | CDR-L2 | CDR-L3 | group | mean log10 Kd (nM) | seen in
MIGQVAFGLSRKANSVA | DNSTREN | QQYDRLPLS | En_Gen | 2.38 | 3 of 6
QLLMATWQGTYNRNSVA | HAETRED | QSYHRLPLS | En_HC | 1.92 | 6 of 6
KFQQSQLYESRMMNSVA | NASKRMS | QQYHRLPLK | GP_Gibbs | 0.14 | 6 of 6
TISQMTSLFSQTINNVA | EVSTREE | QQYDRLPLV | En_Gen | 0.36 | 6 of 6
KLSQSELYESRNKNSVA | GASTRES | QDYHRLPLS | GP_Gen | 0.06 | 6 of 6
KLSQSVEYESRNKNNVA | NASQRES | QQYHRLPLS | GP_Gen | -0.47 | 6 of 6
KLSGSDLYESRNSNSVA | NGSTRES | QDYHRLPLS | GP_Gibbs | 0.05 | 6 of 6
KSSISYLYESLNKNSVA | NGSTRES | QQYHRLPLS | GP_HC | 0.34 | 6 of 6
HSSPSVEYESRNKNSVA | NASMRES | QQYHRLPLS | GP_HC | -0.07 | 6 of 6
HIELGTWGVQKYDSSVA | HASQRQE | QQYGQLPLT | En_Gibbs | 0.45 | 6 of 6
NLMYLEENSLIGASAIA | DVSIAVM | QQYHRLPLA | En_Gibbs | 1.67 | 6 of 6
KLSQSVLYESRNKNSVA | EASKRES | QQYHRLPLS | GP_Gen | -0.07 | 6 of 6
HSSPSVLYESRNKNSVA | SASTRES | QQYHRLPLS | GP_HC | 0.50 | 6 of 6
LISGVWDYGSRNYNSVA | QQSTRES | QQYDRLPLS | En_HC | nd | 0 of 6
KISMSVDYMSATHSSVA | QTSQREE | QQYHRLPLS | En_HC | 0.54 | 6 of 6
KSSQSSLYESRTCNSVA | GASTRES | QQYHRLPLS | Ctrl | 0.86 | 6 of 6
KFSQSWLYESRMKNSVA | NASQRES | QQYHRLPLS | GP_Gen | -0.24 | 6 of 6
KLYFNVGTMSHDKQSIA | DMERRED | QQYHRLPLS | En_HC | 0.25 | 6 of 6
KSSQSVLYESDNKNSVA | WARTRES | QQYHRMPLS | Ctrl | 3.64 | 1 of 6
KSNQSVLYESTNQNSVA | SASTREM | QQPHRMPLS | Ctrl | 2.07 | 1 of 6
KSYQSFLYESRNKNSVA | EASTRES | QQYHRLPLS | GP_HC | 0.26 | 6 of 6
TISQSFMMENQFKNSVA | QATTRES | QCYDRLPLS | En_HC | 2.41 | 4 of 6
KLSQSTLYDSQNKNSVA | WASTRES | QQYWRLPLS | GP_HC | 0.36 | 6 of 6
KIGQITTYHSQVGNSIA | QTSTREE | QQYHRLPLS | En_HC | 0.77 | 6 of 6
KLRQSTLYESRNKNSVA | NASTRCS | QQYHRLPLS | GP_HC | -0.31 | 6 of 6
KSLQSHLYESRNKNSVA | HASTRED | QQYHQLPLS | GP_HC | 0.54 | 6 of 6
KLSMITGHLSTAKNNVA | EMVTREE | QQYNRLPLA | En_Gen | 1.52 | 6 of 6
SMSNLGMVPSVWENSIA | DTEIVEE | QQYSRLPLL | En_Gibbs | 0.73 | 6 of 6
KSMQSLLYESRNKNSVA | WASERES | QQYHRLPLS | Ctrl | 2.38 | 6 of 6
DVTVVDNGDSKIQNSIA | HGVEKCD | QQYSRLPLA | En_Gibbs | 0.33 | 6 of 6
KEQNYSLYMGGYDQNIA | NVSLRCE | QQYFMLPLT | En_Gibbs | 1.97 | 6 of 6
MLALPQKELGYAKDAIA | DGSIRLG | QQYHRLPLT | En_Gibbs | 0.11 | 6 of 6
RLYNQETEQIQHANSIA | DRDEVDS | QQYAHLPLS | En_Gibbs | 0.96 | 6 of 6
KLMSLTGTEKVRGNNVA | EMETREK | QQYNRLPLA | En_Gen | 0.42 | 6 of 6
HMSALTLQGMRMRNSVA | QMTTREN | QQYDHLPLA | En_Gen | 1.76 | 5 of 6
QMTLSFGMWLNAAQSIA | DKSSVME | QQYAWLPLS | En_Gibbs | 1.06 | 6 of 6
NVKAMLNMWARDIHNVA | HADERAV | QQYSRLPLG | En_Gibbs | 0.82 | 6 of 6
KLYQMTLTEGYFKNSVA | QASTREN | QSYHRLPLS | En_HC | 0.61 | 6 of 6
TISTSMRYESSLKNAIA | NAQTRED | QQYHRLPIS | En_HC | 0.64 | 6 of 6
KSSQSVLYESRDKNSVA | EASTRES | QQYHRLPLS | Ctrl | 0.30 | 6 of 6
HSAQSVLYESRMKNSVA | WASTRES | QQYHRLPLS | Ctrl | 2.41 | 6 of 6
KLSQSHGYESRNKNSVA | NASTRES | QQYHRLPLS | GP_Gen | -0.04 | 6 of 6
TISQMTSLFSQSINNVA | EVSEREK | QQYDRLPLM | En_Gen | 1.62 | 2 of 6
KVDQSDLYESRNKNSVA | QGSTRES | QQYHRLPLH | GP_Gibbs | 0.10 | 6 of 6
KVSQSELYESRNKNSVA | NASTRCS | QQYHRLPLS | GP_Gen | -0.14 | 6 of 6
KMSQSWLYESRNKNSVA | GASAREV | QQYHRLPLS | GP_HC | -0.15 | 6 of 6
KLSMSMLYESRNKNSVA | DASQRES | QQYHRLPLS | GP_Gen | -0.11 | 6 of 6
KYYPSYLYESRNKNSVA | QASTRES | QQYHKLPLS | GP_HC | 0.92 | 6 of 6
KSSQSVRYESRNKNSVA | DAKTREF | QQYHRLPLK | Ctrl | 0.50 | 6 of 6
KSSISGLYESRMKNSVA | EASTREQ | QQYHRLPLS | GP_HC | 1.03 | 5 of 6
KMEQGQLYESRNKNSVA | GASVRES | QQYHRLPLS | GP_HC | -0.27 | 6 of 6
KLPQEVLYESRNKNSVA | GASTRES | QQYHRLPLS | GP_HC | -0.50 | 6 of 6

Extract of 3 entries:

CDR-L1 | CDR-L2 | CDR-L3 | group | mean log10 Kd (nM) | seen in
NLMYLEENSLIGASAIA | DVSIAVM | QQYHRLPLA | En_Gibbs | 1.67 | 6 of 6
KSNQSVLYESTNQNSVA | SASTREM | QQPHRMPLS | Ctrl | 2.07 | 1 of 6
HSSPSVLYESRNKNSVA | SASTRES | QQYHRLPLS | GP_HC | 0.50 | 6 of 6